Results on one compound are retold here after ChEMBL document CHEMBL1255571, “Discovery of pyrrolopyrimidine inhibitors of Akt” (Bioorg Med Chem Lett, 2010).

One data set is filed under the species Homo sapiens. As to the kind of experiment: Plasma protein binding in human. The conditions noted are these: read-out: PPB (converted).
The nature of data set [1]: Plasma protein binding in mouse. The class given is ADME, cell-free. As to conditions: read-out: PPB (converted).

The structures appear in SMILES notation.

In the case of `Cc1c[nH]c2ncnc(N3CCN(C(=O)[C@H](N)Cc4ccc(F)cc4)CC3)c12`, the fraction unbound in the data set listed under Homo sapiens was 0.35; in data set [1], 0.34.
